Test results: US9120744B2, “Plasminogen activator inhibitor-1 inhibitors and methods of use thereof to modulate lipid metabolism” (THE REGENTS OF THE UNIVERSITY OF MICHIGAN, priority 2007, dated 2015)

By UniProt entry, the sequences of proteins in these tests, tags left out. Residues count along the entry.
UniProt P05121, 24-402 limits assumed: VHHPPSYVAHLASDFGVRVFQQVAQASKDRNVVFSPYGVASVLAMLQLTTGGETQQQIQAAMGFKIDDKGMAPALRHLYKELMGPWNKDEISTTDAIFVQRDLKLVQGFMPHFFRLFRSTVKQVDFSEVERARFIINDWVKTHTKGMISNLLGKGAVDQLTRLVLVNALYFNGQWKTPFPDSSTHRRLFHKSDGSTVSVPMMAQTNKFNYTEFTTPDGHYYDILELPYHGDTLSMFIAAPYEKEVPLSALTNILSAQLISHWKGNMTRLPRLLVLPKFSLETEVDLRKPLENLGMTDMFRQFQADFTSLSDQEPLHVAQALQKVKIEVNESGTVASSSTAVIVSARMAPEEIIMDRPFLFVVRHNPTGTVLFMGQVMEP

Target: recombinant active human PAI-1 (Homo sapiens (Human), UniProt P05121)
Test: pH dependence of PAI-1 inhibition, fluorogenic uPA (or tPA) assay
Type: biochemical
Conditions: pH 6.5 to 8.5

## O=C(O[C@@H]1Cc2c(O)cc(O)cc2O[C@@H]1c1cc(O)c(O)c(O)c1)c1cc(O)c(O)c(O)c1
  effect of pH on PAI-1 inhibition (in words): increased with increasing pH to 8.5
